In patent publication US20140093973A1:
Read-outs that look alike come from different tables or passages of the source.

Columns and labels:
[1] = biological target: soluble HLA-A*0201 (sHLA-A*0201) (human)
[2] = biological target: soluble HLA-A*0201 (sHLA-A*0201) (human); experiment: FP, pFITC P1 titrated at 425 nM (20 µg/ml) sHLA-A*0201; FPmin = 27.00 mP
[3] = biological target: soluble HLA-A*0201 (sHLA-A*0201) (human); remark: listed apart in the source
[4] = biological target: soluble HLA-A*0201 (sHLA-A*0201) (human); experiment: FP, sHLA-A*0201 titrated against 10 nM FITC-labeled P1, plateau of the fit
[5] = biological target: soluble HLA-A*0201 (sHLA-A*0201) (human); experiment: FP titration with variable sHLA-A*0201, 10 nM peptide
[6] = biological target: soluble HLA-A*0201 (sHLA-A*0201) (human); experiment: FP, sHLA-A*0201 titrated against 10 nM FITC-labeled P2, plateau of the fit
[7] = biological target: soluble HLA-A*0201 (sHLA-A*0201) (human); experiment: FP, passive loading at room temperature, highest sHLA concentration
[8] = biological target: soluble HLA-A*0201 (sHLA-A*0201) (human); remark: listed apart in the source
[9] = biological target: soluble HLA-A*0201 (sHLA-A*0201) (human); experiment: FP, fixed FITC-peptide, sHLA preincubated at 54 C and titrated (the value is an sHLA concentration), 4 C, 140 hours
[10] = biological target: soluble HLA-A*0201 (sHLA-A*0201) (human); experiment: FP, pFITC P2 titrated at 425 nM (20 µg/ml) sHLA-A*0201; FPmin = 27.00 mP
[11] = biological target: soluble HLA-A*0201 (sHLA-A*0201) (human); remark: listed apart in the source
[12] = biological target: soluble HLA-A*0201 (sHLA-A*0201) (human); experiment: FP real-time association kinetics, intercept of kob against ligand concentration
[13] = biological target: soluble HLA-A*0201 (sHLA-A*0201) (human); experiment: FP, passive loading at room temperature
[14] = biological target: soluble HLA-A*0201 (sHLA-A*0201) (human); experiment: FP real-time association kinetics, 50 ug/mL sHLA-A*0201, excess b2m, 20 C

Binder | Bmax [1] | FPmax [2] | EC50 [3] | FPmax [4] | increase of signal upon binding [5] | FPmax [6] | change in polarization upon binding [7] | maximal polarization level [7] | EC50 [8] | EC50 (read off the curve) [9] | FPmax [10] | Bmax [11] | koff [12] | maximum FP [13] | kon [14]
FLPSDKFPSV (modifications not checked) [A*0201/P1, FITC-labeled peptide …] | 157 nM | 179 mP | 202 nM | 183 mP | > 500% | – | – | – | – | – | – | – | – | – | –
SLYNKVATL (modifications not checked) [A*0201/P2, FITC-labeled peptide …] | – | – | – | – | – | 206 mP | 40 mP | 66 mP | 277 nM | 3 nM | 160 mP | 104 nM | 0.00024 s⁻¹ | 70 mP | 19400 M⁻¹ s⁻¹
